7 compounds from patent US10072034B2, “Kinase inhibitors” (Respivert Limited, priority 2016, dated 2018) can be followed below.

This assay relates to IL-8 release in PBMCs. The experiment in a line: LPS-induced IL-8 release in PBMC cells (assay (b)). It counts as cell-based, human. The settings on record: LPS-stimulated PBMCs. From the text: Peripheral blood mononuclear cells (PBMCs) from healthy subjects are separated from whole blood using a density gradient (Lymphoprep, Axis-Shield Healthcare). […] The supernatant is harvested for determination of IL-8 and TNFα concentrations by sandwich ELISA (Duo-set, R&D systems) and read on the fluorescence microplate reader (Varioskan® Flash, ThermoFisher Scientific).

SMILES strings stand for the structures.

Broadly, the IC50 is the concentration that inhibits the measured activity by half. Lower therefore signals greater potency. Take `COc1cc(Nc2cc(Oc3ccc(NC(=O)Nc4cc(C(C)(C)C)cc(NS(C)(=O)=O)c4OC)c4ccccc34)ccn2)cc(OCCOCCOCc2nnn[nH]2)c1` [Example 23, N-(3-(3-(4-((2-((3-(2-(2-(1H-Tetrazol-5-yl)methoxyethoxy)ethoxy)-5-methoxyphenyl)amino)-pyridin-4-yl)oxy)naphthalen-1-yl)ureido)-5-(tert-butyl)-2-methoxyphenyl)methanesulfonamide]: the midpoint of inhibition (Homo sapiens, PBMC), the IC50, lay at 29.2 nM.
`COc1cc(Nc2cc(Oc3ccc(NC(=O)Nc4cc(C(C)(C)C)cc(N(C)S(C)(=O)=O)c4OC)c4ccccc34)ccn2)cc(OCCOCCOCC(=O)O)c1` [Example 11, 2-(2-(2-(3-((4-((4-(3-(5-(tert-Butyl)-2-methoxy-3-(N-methylmethylsulfonamido)phenyl)ureido)-naphthalen-1-yl)oxy)pyridin-2-yl)amino)-5-methoxyphenoxy)ethoxy)ethoxy)acetic acid] showed an IC50 (Homo sapiens, PBMC) of 11.7 nM.
As to `COc1cc(Nc2cc(Oc3ccc(NC(=O)Nc4cc(C(C)(C)C)on4)c4ccccc34)ccn2)cc(OCCOCCOCC(=O)O)c1` [Example 17, 2-(2-(2-(3-((4-((4-(3-(5-(tert-Butyl)isoxazol-3-yl)ureido)naphthalen-1-yl)oxy)pyridin-2-yl)amino)-5-methoxyphenoxy)ethoxy)ethoxy)acetic acid], for the setting “Homo sapiens, PBMC”, half-maximal inhibition (IC50) was put at 17.2 nM.
For the compound `COc1cc(Nc2cc(Oc3ccc(NC(=O)Nc4cc(C(C)(C)C)cc(NS(C)(=O)=O)c4OC)c4ccccc34)ccn2)cc(OCCOCCOC(C)C(=O)O)c1` (single isomer, unassigned) [20(a)], the half-maximal inhibitory concentration (IC50) (Homo sapiens, PBMC) came to 10.4 nM.
Under “Homo sapiens, PBMC”, `COc1cc(Nc2cc(Oc3ccc(NC(=O)Nc4cc(C(C)(C)C)cc(NS(C)(=O)=O)c4OC)c4ccccc34)ccn2)cc(OCCOCCOC(C)C(=O)O)c1` (stereo not shown) [Example 14] had an IC50 of 7.3 nM.
Compound `COc1cc(Nc2cc(Oc3ccc(NC(=O)Nc4cc(C(C)(C)C)cc(NS(C)(=O)=O)c4OC)c4ccccc34)ccn2)cc(OCCOCCOC(C)C(=O)O)c1` (single isomer, unassigned) [20(b)] showed an IC50 of 19.1 nM.
With `CNC(=O)c1cc(C(C)(C)C)cc(NC(=O)Nc2ccc(Oc3ccnc(Nc4cc(OC)cc(OCCOCCOCC(=O)O)c4)c3)c3ccccc23)c1OC` [Example 7], the IC50 (Homo sapiens, PBMC) stood at 20.8 nM.
